# Data as given in PMC10820861, “Furofuranoid-Type Lignans and Related Phenolics from Anisacanthus virgularis (Salisb.) Nees with Promising Anticholinesterase and Anti-Ageing Properties: A Study Supported by Molecular Modelling” (Plants, 2024).
# Protein sequences, listed by entry. Tags and fused reporters are not part of them. Residues count along the entry.
# UniProt O42275, 24-633: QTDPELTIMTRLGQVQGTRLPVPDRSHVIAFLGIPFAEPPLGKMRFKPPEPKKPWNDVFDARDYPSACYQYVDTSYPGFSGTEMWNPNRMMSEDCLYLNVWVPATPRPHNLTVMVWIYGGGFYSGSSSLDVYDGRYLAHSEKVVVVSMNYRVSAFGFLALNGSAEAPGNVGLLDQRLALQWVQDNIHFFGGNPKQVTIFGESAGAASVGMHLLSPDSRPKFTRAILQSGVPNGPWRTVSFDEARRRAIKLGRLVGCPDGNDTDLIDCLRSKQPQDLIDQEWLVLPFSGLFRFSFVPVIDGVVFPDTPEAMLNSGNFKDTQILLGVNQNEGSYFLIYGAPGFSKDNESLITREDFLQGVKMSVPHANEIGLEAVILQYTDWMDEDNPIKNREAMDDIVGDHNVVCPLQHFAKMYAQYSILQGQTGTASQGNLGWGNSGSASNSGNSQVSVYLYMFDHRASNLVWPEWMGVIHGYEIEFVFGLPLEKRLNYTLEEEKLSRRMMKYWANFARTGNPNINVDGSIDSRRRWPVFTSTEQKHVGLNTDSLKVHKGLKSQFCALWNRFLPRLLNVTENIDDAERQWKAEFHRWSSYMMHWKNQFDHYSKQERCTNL
# Biological target: T1, AChE (Electrophorus electricus, UniProt O42275)
# T1 construct: purchased
# Assay type: biochemical
# Settings: read-out: IC50 (AChE inhibition); mean ± SD
substance,measurement,value
phillyrin [Compound 4],IC50,279 ± 11 nM
